Experimental data reported in ChEMBL document CHEMBL4414561, “Cholinesterase Inhibitory Arisugacins L-Q from a Penicillium sp. Isolate Obtained through a Citizen Science Initiative and Their Activities in a Phenotype-Based Zebrafish Assay” (J Nat Prod, 2019).

Chains of the proteins cited; added tags and fusions are not shown. Lines headed by an entry give the natural chain unless they say otherwise; changes in a name come on top.
UniProt O42275: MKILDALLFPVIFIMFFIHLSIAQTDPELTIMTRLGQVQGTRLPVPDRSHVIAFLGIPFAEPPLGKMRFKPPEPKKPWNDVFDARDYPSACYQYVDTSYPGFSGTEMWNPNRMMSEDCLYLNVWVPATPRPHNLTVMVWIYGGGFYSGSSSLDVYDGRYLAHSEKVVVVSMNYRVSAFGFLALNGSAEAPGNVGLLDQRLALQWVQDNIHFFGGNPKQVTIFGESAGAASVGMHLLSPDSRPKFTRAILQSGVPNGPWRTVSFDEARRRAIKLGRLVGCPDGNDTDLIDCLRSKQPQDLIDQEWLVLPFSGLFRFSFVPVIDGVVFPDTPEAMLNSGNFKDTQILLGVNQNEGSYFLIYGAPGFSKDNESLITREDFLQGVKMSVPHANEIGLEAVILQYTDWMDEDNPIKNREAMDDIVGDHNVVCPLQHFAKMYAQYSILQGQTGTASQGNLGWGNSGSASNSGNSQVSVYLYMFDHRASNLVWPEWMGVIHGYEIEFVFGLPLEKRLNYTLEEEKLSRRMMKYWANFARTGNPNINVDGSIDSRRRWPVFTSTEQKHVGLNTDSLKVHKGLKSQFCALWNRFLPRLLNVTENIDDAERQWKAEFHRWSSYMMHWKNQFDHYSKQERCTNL

Biological target: Acetylcholinesterase (Electrophorus electricus, UniProt O42275)
Assay: Inhibition of electric eel AChE incubated for 15 mins by Ellman's method
In short: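 Colorimetric kit assay with Electrophorus electricus AChE. Compound is incubated with enzyme for 15 min. Assay buffer containing AChE substrate and DTNB is then added, and absorbance is read at 0 and 15 min. Single-point screen at 50 μM; IC50 also determined.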

Compound: CNC(=O)Oc1ccc2c(c1)[C@]1(C)CCN(C)[C@@H]1N2C [PHYSOSTIGMINE]
- IC50: 7.8 nM
